Reference: patent publication US12064407B2 (priority 2017, dated 2024)

Tested on: ERVK CTXLP
Type: cell-based, human

TNFα
CTXLP expression in SVGA cells: upregulated
CTXLP protein levels in the nucleus of SVGA cells: strongly elevated

B1: LIGHT: lymphotoxin-like inducible member of the TNF superfamily protein, pro-inflammatory cytokine (protein, UniProt O43557 83-240, looked up)
Tumor necrosis factor ligand …: LIQERRSHEVNPAAHLTGANSSLTGSGGPLLWETQLGLAFLRGLSYHDGALVVTKAGYYYIYSKVQLGGVGCPLGLASTITHGLYKRTPRYPEELELLVSQQSPCGRATSSSRVWWDSSFLGGVVHLEAGEKVVVRVLDERLVRLRDGTRSYFGAFMV
CTXLP expression in SVGA cells: upregulated
